Laboratory results taken from publication PMC6936329 (Cell chemical biology, 2019).

Assays:
[1] = system: CDK2/cyclin A/E, CDK1/cyclin B, CDK7/cyclin H, CDK9/cyclin K/T1, CAMKIIα/β/γ, and GSK-3α/β
[2] = system: CDK1, CDK2, CDK7, CDK9, GSK3α/β and CAMKIIγ/δ

CCN1CCN(Cc2ccc(Nc3ncc(F)c(-c4cc(F)c5nc(C)n(C(C)C)c5c4)n3)nc2)CC1 [abemaciclib]
activity against secondary kinases [1]: active | binding to CDK1, CDK2, CDK7, CDK9, GSK3α/β and CAMKIIγ/δ [2]: bound
